These are literature values, as cited in paper PMC10308680 (Journal of Biomedical Science, 2023).

The conditions of this data set: in vivo; cited from earlier work.

In the case of abatacept, the side effects entry was “causing side effects”.
